# Binding of CDR-mutated scFvs to a peptide of the spike HR2 region

Reference: Engelhart et al. 2022, doi:10.1038/s41597-022-01779-4. File: FLAb, binding data.

Antigen: PDVDLGDISGINAS, a 14-residue peptide of the SARS-CoV-2 spike HR2 region.

The variants keep the heavy chain, the linker and the frameworks of Ab-95 (scFv order VH, three GGGGS repeats, VL).
VH: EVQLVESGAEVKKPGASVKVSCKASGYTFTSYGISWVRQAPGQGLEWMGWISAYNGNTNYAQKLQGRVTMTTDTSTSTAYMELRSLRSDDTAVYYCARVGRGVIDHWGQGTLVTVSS
VL: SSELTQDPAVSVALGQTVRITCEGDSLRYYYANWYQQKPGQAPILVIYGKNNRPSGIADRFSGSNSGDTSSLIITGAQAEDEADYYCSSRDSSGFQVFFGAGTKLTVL

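The starting antibody came from a phage panning campaign against this peptide. In library AAYL52, one, two or three CDR residues were substituted; doubles and triples were drawn at random. The assay is AlphaSeq: two haploid yeast populations carry antibody and antigen on their surface. Pairs that bind mate more often; barcode pairs of the diploids are counted by sequencing. Each replicate has its own calibration line, from reference interactions of the BCL2 family. There are three technical replicates.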

Changes read parent residue, position, new residue, counted from the first residue of the VL shown.
Numbers give log10(Kd / nM), so 0 is 1 nM and 3 is 1 µM. Smaller is tighter.
The mean shown is taken over the replicates in which the pair was detected.
"nd" means that the variant was in the library but no mating with the target was seen in any replicate; the authors take this as a sign of poor binding, and no number exists.
Entries are sorted by rising average, undetected variants last.
Nonspecific signal, from three strains lacking the peptide, appeared in 28% of pairings of library AAYL52, centred on 3.91 (5% of these signals below 2.90); values are not corrected for it. Also given: how often the same scFv was detected with the empty control strains.
In this assay the parent's reference entry averaged 2.31; its copy inside this library read 2.25.

Variant Y29A+S55E showed 1.30 (3 of 3 replicates; controls 3 of 9).
Variant A32M+R90L+S93Q showed 1.98 (3 of 3 replicates; controls 2 of 9).
Variant N51D+P54A showed 2.13 (3 of 3 replicates; controls 4 of 9).
Variant E23K+S93V+F95N showed 2.31 (3 of 3 replicates; controls 5 of 9).
Variant E23Y+N51A showed 2.80 (3 of 3 replicates; controls 4 of 9).
Variant D25Y+S93A+V97E showed 2.81 (3 of 3 replicates; controls 4 of 9).
Variant G24C+S26R showed 2.88 (3 of 3 replicates; controls 2 of 9).
Variant Y29E+S92C+F98G showed 2.94 (3 of 3 replicates; controls 4 of 9).
Variant L27R+R53T+Q96K showed 3.03 (2 of 3 replicates; controls 4 of 9).
Variant S26C+S92M+F95L showed 3.08 (1 of 3 replicates; controls 4 of 9).
Variant E23P+G24V showed 3.18 (3 of 3 replicates; controls 2 of 9).
Variant K50N+S55L+G94A showed 3.30 (1 of 3 replicates; controls 0 of 9).
Variant S55V+S93M+G94D showed 3.43 (1 of 3 replicates; controls 2 of 9).
Variant Y29R+Y30K+G94L showed 3.46 (2 of 3 replicates; controls 5 of 9).
Variant A32W+G49Q+K50A showed 3.53 (3 of 3 replicates; controls 3 of 9).
Variant D25S+S92C+F95E showed 3.54 (2 of 3 replicates; controls 1 of 9).
Variant Y29N+A32D+K50V showed 3.59 (2 of 3 replicates; controls 1 of 9).
Variant D25T+R53Y+S89M showed 3.70 (1 of 3 replicates; controls 3 of 9).
Variant N33G+S93N+V97I showed 3.75 (2 of 3 replicates; controls 1 of 9).
Variant Y31P+G94T+F95A showed 3.83 (1 of 3 replicates; controls 2 of 9).

The remaining entries, values ahead:

Result 3.84 (1 of 3 replicates; controls 2 of 9), variant Y29G+A32L+D91P.
Result 3.85 (3 of 3 replicates; controls 5 of 9), variant Y29K+S88K+S92H.
Result 3.93 (3 of 3 replicates; controls 5 of 9), variant G24Y+Y29R+S89R.
Result 3.98 (3 of 3 replicates; controls 4 of 9), variant Y29D+N33P+N52I.
Result 4.41 (2 of 3 replicates; controls 4 of 9), variant L27E+F98I.
Result 4.51 (2 of 3 replicates; controls 4 of 9), variant S26Q+S92I+S93C.
Result 4.51 (2 of 3 replicates; controls 2 of 9), variant G49W+K50S+V97A.
Result 4.55 (3 of 3 replicates; controls 4 of 9), variant R53E+S93K+F98Y.
Result 4.64 (1 of 3 replicates; controls 3 of 9), variant G49A+R53K+S89D.
Result 4.71 (1 of 3 replicates; controls 2 of 9), variant G24N+N52H+G94Y.
Result 4.75 (1 of 3 replicates; controls 5 of 9), variant G49A+N51S+S89P.
Result 4.81 (1 of 3 replicates; controls 1 of 9), variant K50Y+P54E+F95C.
Result nd (0 of 3 replicates; controls 5 of 9), variant D25K+Y30M+G49C.
Result nd (0 of 3 replicates; controls 0 of 9), variant N52C+R90P+Q96G.
Result nd (0 of 3 replicates; controls 2 of 9), variant R53Y+S55N+V97K.
Result nd (0 of 3 replicates; controls 2 of 9), variant Y30F+S55P+R90M.
Result nd (0 of 3 replicates; controls 1 of 9), variant E23W+D91P+F98N.
Result nd (0 of 3 replicates; controls 0 of 9), variant S26C+F98Q.
Result nd (0 of 3 replicates; controls 2 of 9), variant L27Y+R28Q+V97G.
Result nd (0 of 3 replicates; controls 0 of 9), variant N33Q+N51H+R90T.